In PubChem BioAssay AID602224 (National Center for Advancing Translational Sciences (NCATS), 2012):
The entries are a selection whose mix differs from that of the whole data set. Inconclusive results are not listed. Active and inactive are the calls of the source. Calls come from the whole dose curve; as a rule, active = well fitted inhibition curve with a large enough effect; inconclusive = small, poorly fitted or top-dose-only effect, or another doubt; inactive = no such curve, though single readings can be large or run the other way.

Experiment: qHTS Assay for the Inhibitors of L3MBTL1: Hit Validationin AlphaScreen Counterscreen; note: 0% is about no effect
Details: signal inhibition; at 57.1 µM (top of the series)
Excerpt: The histone code is comprised of many post-translational modifications that occur mainly in histone tail peptides. The identity and location of these marks are read by a variety of histone binding proteins that are emerging as important regulators of cellular differentiation and development and are increasingly being implicated in numerous disease states. Small molecule probes that disrupt the interaction between histone binding proteins and chromatin would enable a systematic chemical biology study of proteins that read the histone code and could potentially reveal new targets for drug discovery. However, no such small molecules are known. This dearth of quality molecular probes can largely be attributed to the novelty of the target class and the lack of screening assays. […]
Biotinylated hexahistidine (b-His6) (PerkinElmer, Waltham, MA) will be added to 1,536-well plates in a 3 uL dispense. […] Streptavidin-coated donor and nickel chelate acceptor AlphaScreen beads will be added (1 uL) for final concentrations of 10 ug/mL each bead and 1 nM b-His6, and plates read as described above (qHTS assay) after a 30 min incubation at room temperature in the dark

Structure (SMILES): CCc1nc2c(n1)c1c(non1O)c1c2no[n+]1[O-]
- activity change, negative = inhibition: inactive: 46.6%
